Reference: patent US10144715B2, “Piperazine derivatives as liver X receptor modulators” (priority 2014, dated 2018)

Protein sequences, listed by entry. Tags and fused reporters are not part of them. Residues count along the entry.
UniProt P55055, 222-460 limits assumed: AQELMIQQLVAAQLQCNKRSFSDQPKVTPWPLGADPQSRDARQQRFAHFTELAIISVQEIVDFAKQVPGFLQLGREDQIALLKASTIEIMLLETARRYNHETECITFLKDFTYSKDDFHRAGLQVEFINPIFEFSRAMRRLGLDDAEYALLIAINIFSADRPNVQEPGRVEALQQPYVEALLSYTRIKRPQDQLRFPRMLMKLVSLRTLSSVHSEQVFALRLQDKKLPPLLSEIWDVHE

What follows are compounds tested against Gal4 DNA binding domain fused to the LBD of LXRβ in HEK293 cells (Homo sapiens (Human), UniProt P55055) (assay: LXR luciferase transcriptional reporter gene assay, agonist mode, LXRβ).
Assay type: cell-based
In the case of `CC(C)[C@@H]1CN(c2ccc(F)c(S(C)(=O)=O)c2)CCN1C(=O)OC(C)(C)C(F)(F)F` [5-2, 1,1,1-trifluoro-2-methylpropan-2-yl (R)-4-(4-fluoro-3-(methylsulfonyl)phenyl)-2-isopropylpiperazine-1-carboxylate], the “Cell LXRβ efficacy” value is reported as 111 (49) %.
In the case of `CC(C)[C@@H]1CN(c2ccc(F)c(S(C)(=O)=O)c2)CCN1C(=O)OC(C)C(F)(F)F` (stereo partly drawn) [5-3, 1,1,1-trifluoropropan-2-yl (2R)-4-(4-fluoro-3-(methylsulfonyl)phenyl)-2-isopropylpiperazine-1-carboxylate], the “Cell LXRβ efficacy” value is reported as 198 (58) %.
With `CC(C)[C@@H]1CN(c2ccc(F)c(S(C)(=O)=O)c2)CCN1C(=O)OCC(F)(F)F` [5-4, 2,2,2-trifluoroethyl (R)-4-(4-fluoro-3-(methylsulfonyl)phenyl)-2-isopropylpiperazine-1-carboxylate] the “Cell LXRβ efficacy” value was 732 (32) %.
With `CC(C)[C@@H]1CN(c2ccc(F)c(S(C)(=O)=O)c2)CCN1C(=O)OC1CC(F)(F)C1(F)F` (stereo partly drawn) [Cpd No 5-1, 2,2,3,3-tetrafluorocyclobutyl (2R)-4-(4-fluoro-3-(methylsulfonyl)phenyl)-2-isopropylpiperazine-1-carboxylate] the “Cell LXRβ efficacy” value was 272 (63) %.
